Laboratory results: PubChem BioAssay AID1766 (National Center for Advancing Translational Sciences (NCATS), 2009)
Several values for one entry are separate records, joined by “and”; a condition that tells them apart may be missing. Equal entries are not always repeated. The entries are a selection whose mix differs from that of the whole data set. Inconclusive results are not listed. Activity calls are given as the source filed them. Calls follow the shape of the dose curve; as a rule, active = well fitted curve in the direction sought with a large enough effect in the polarisation (not every such curve was filed as active); inconclusive = small, poorly fitted or top-dose-only effect, or effect the other way, or a change in a side signal; inactive = no such curve, though single readings can be large or run the other way; the % refers to the polarisation.

Assay: qHTS Assay for Inhibitors Targeting the Menin-MLL Interaction in MLL Related Leukemias: Competition With Fluorescein Labeled MLL-derived Peptide; also: % of control where 0% means no effect
Settings: Fluorescence polarization, fluorescein-MLL peptide displacement from menin; at 61.4 µM (top of the series) unless noted

SMILES | FP activity change
CN(C)C1(CNC(=O)c2ccc(S(C)(=O)=O)cc2)CCCCC1 | inactive: 3.12%
COc1cc(C2NCCC3(OCCO3)C2(C)C)cc(OC)c1OC.O=[N+]([O-])c1cc([N+](=O)[O-])c(O)c([N+](=O)[O-])c1 (centres undefined) | inactive: 1.86%
CC1CCC(C(C)C)C(OP(=O)(Nc2ccccn2)c2ccccc2)C1 (centres undefined) | inactive: -3.51%
Cc1ccc(C(=O)OC2CN3CCC2CC3)cc1 (centres undefined) | inactive: -4.74%
Cc1nn(-c2ccccc2)c2c1P(=O)(N1CCOCC1)N(C)C(c1ccccc1)=N2 (centres undefined) | inactive: -2.46%
Nc1ccc([As](=O)(O)c2ccc([N+](=O)[O-])cc2)cc1 | inactive: -0.929%
C(Cc1nn[nH]n1)Cc1nn[nH]n1 | inactive: -0.801%
O=C(OC1CN2CCC1CC2)c1cccc(Cl)c1 (centres undefined) | inactive: 4.89%
O=[N+]([O-])c1ccc(O)c(/C=N/Nc2ccc([N+](=O)[O-])cc2[N+](=O)[O-])c1 | inactive: -0.0049%
CC(=O)NC(SC(=S)N(C)C)C(Cl)(Cl)Cl (centres undefined) | inactive: 1.43%
O=[N+]([O-])c1ccc(OP2(=O)COCCO2)cc1 (centres undefined) | inactive: 2.29%
O=[N+]([O-])c1ncn(CCn2cnc([N+](=O)[O-])n2)n1 | inactive: 2.28%
Cc1cc(-c2cccc3ccccc23)c(C)cn1.O=[N+]([O-])c1cc([N+](=O)[O-])c(O)c([N+](=O)[O-])c1 | inactive: 4.21%
O=[As](O)(c1ccccc1)c1ccc(O)cc1 | inactive: -2.56%
C[C@H]1OP(=O)(Oc2ccccc2)[C@H](O)[C@H](O)[C@H]1N=[N+]=[N-] (some centres undefined) | inactive: 3.48%
CN(C)CCOC(=O)C(O)(c1ccccc1)C1CCCCC1 (centres undefined) | inactive: -0.824%
O=P(Nc1nc2ccccc2s1)(c1ccccc1)c1ccccc1 | inactive: -2.71%
CN(C(=O)Cc1ccccc1)[C@H]1CC[C@@]2(CCCO2)C[C@@H]1N1CCCC1 | inactive: -15%
COc1ccc(NP(C)(=O)Oc2ccccc2OC)cc1 (centres undefined) | inactive: -2.1%
COc1ccc(OP(C)(=O)Nc2cccc(Br)c2)cc1 (centres undefined) | inactive: 0.687%
O=P(Nc1ccccn1)(c1ccc(Br)cc1)c1ccc(Br)cc1 | inactive: 2.38%
CN(C)C1(CNC(=O)c2ccc(Cl)c(S(N)(=O)=O)c2)CCCCC1 | inactive: -2.15%
CCN(CCCl)Cc1ccccc1C | inactive: -3.09%
Cc1ccccc1NP(C)(=O)Nc1ccccc1C | inactive: 6.56%
CP(=O)(Nc1ccc2c(c1)OCCO2)Oc1ccccc1 (centres undefined) | inactive: 0.917%

SMILES | FP activity change
CCOP(C)(=S)SCC(=O)NC(C)(CC)C(=O)O (centres undefined) | inactive: 3.91%
CCC(C)(OOC(C)(C)C)OOC(C)(C)C | inactive: 5.45%
c1nnnn1CCn1cnnn1 | inactive: -11%
CP(=O)(Nc1ccc(SC(F)(F)F)cc1)Oc1ccc(F)cc1 (centres undefined) | inactive: 5.23%
CC(C)C(=O)NC(Sc1ccccc1)C(Cl)(Cl)Cl (centres undefined) | inactive: -2.86%
O=P(Nc1nccs1)(c1ccccc1)c1ccccc1 | inactive: -3.62%
CC(=O)Nc1ccc(Oc2c([N+](=O)[O-])cc([N+](=O)[O-])cc2[N+](=O)[O-])cc1 | inactive: -2.43%
CC(=O)Nc1ccc([As](=O)(O)O)c(O)c1 | inactive: -3.05%
CC(=O)c1ccc(N2CC2c2ccncc2)cc1 (centres undefined) | inactive: 3.55%
C[C@@H]1C=CCP(=O)(Oc2ccccc2)O1 (some centres undefined) | inactive: 1.85%
C[C@H]1OP(=O)(Oc2ccccc2)C[C@@H]2O[C@@H]21 (some centres undefined) | inactive: -0.782%
O=C(OCCN1CCN(CCOCc2ccccc2)CC1)C(O)(c1ccccc1)c1ccccc1 | inactive: 5.87%
CP(=O)(Nc1ccccc1F)Oc1ccccc1 (centres undefined) | inactive: -1.58%
CC(C)c1ccc(OP(C)(=O)Nc2ccc(SC(F)(F)F)cc2)cc1 (centres undefined) | inactive: 7.72%
CC(C)(C)C(=O)NC(Sc1ccccc1)C(Cl)(Cl)Cl (centres undefined) | inactive: -2.75%
CCOc1ccc(C2=NCC(CBr)S2)cc1 (centres undefined) | inactive: -0.845%
O=P1(Nc2nc3ccc(Cl)cc3s2)COc2ccccc2O1 (centres undefined) | inactive: 2.1%
CP(=O)(Nc1ccccc1)Oc1ccc(F)cc1 (centres undefined) | inactive: 0.589%
CN(C)C(=O)Oc1noc2ccccc12 | inactive: 1.12%
O=c1c2cc([N+](=O)[O-])ccc2[nH]c2c([N+](=O)[O-])cc([N+](=O)[O-])cc12 | inactive: 0.539%
CCCCCOc1ccc(NP(C)(=O)Oc2ccc(Cl)cc2Cl)cc1 (centres undefined) | inactive: -0.408%
Cc1ccccc1OP(=O)(Nc1ccccn1)Oc1ccccc1C | inactive: 0.855%
CC(=O)NC(SC(=S)N(CC(C)C)CC(C)C)C(Cl)(Cl)Cl (centres undefined) | inactive: 1.49%
Cc1ccc(OP(=O)(Nc2ccccn2)Oc2ccc(C)cc2)cc1 | inactive: 6.43%
COC(=O)c1cc2c(s1)N=C(c1ccccc1)N(C)P2(=O)N1CCOCC1 (centres undefined) | inactive: -2.83%

SMILES | FP activity change
CCN(CC)CCCOC(=O)C(O)(c1ccccc1)C1CCCCC1 (centres undefined) | inactive: -0.0761%
CCC(=O)N1C2C3N(C(=O)CC)C1C1N(C(=O)CC)C(C(N1C(=O)CC)N3C(=O)CC)N2C(=O)CC | inactive: 4.93%
O=C(OC1CN2CCC1CC2)c1ccccc1 (centres undefined) | inactive: 4.89% and inactive: -1.74%
CCOC(=O)c1ccc(NP(C)(=O)Oc2ccc(F)cc2)cc1 (centres undefined) | inactive: -1.2%
COc1ccc(OP(C)(=O)Nc2ccc(SC(F)(F)F)cc2)cc1 (centres undefined) | inactive: -1.34%
CCNC(=S)/N=C(\N)N[N+](=O)[O-] | inactive: 1.31%
O=C(NC1CCS(=O)(=O)C1)NP(=S)(Oc1ccccc1)Oc1ccccc1 (centres undefined) | inactive: 3.92%
Cc1ccc(NP(=O)(Oc2cccc(C)c2)Oc2cccc(C)c2)nc1 | inactive: 3.64%
CCOC(=O)NC(Sc1ccccc1)C(Cl)(Cl)Cl (centres undefined) | inactive: 0.199%
c1ccc(-c2nn[nH]n2)c(-c2nn[nH]n2)c1 | inactive: -1.46%
CCN(N=Nc1nonc1N)c1nonc1N | inactive: 6.36%
CP(=O)(OCCOc1ccccc1)OCCOc1ccccc1 | inactive: -2.55%
CP(=O)(Nc1ccc(Cl)cc1Cl)Oc1ccccc1 (centres undefined) | inactive: 0.922%
Nc1cccc2ccc([As](=O)(O)O)cc12 | inactive: -0.957%
Cc1nc2ccc3ccccc3c2o1.O=[N+]([O-])c1cc([N+](=O)[O-])c(O)c([N+](=O)[O-])c1 | inactive: -0.754%
O=[N+]([O-])c1cc([N+](=O)[O-])c(CCN2CCOCC2)c([N+](=O)[O-])c1 | inactive: 0.997%
Cc1ccc(NP(=O)(Oc2ccccc2F)Oc2ccccc2F)nc1 | inactive: 2.57%
COc1ccccc1OP(C)(=O)Nc1ccc(C)c(C)c1 (centres undefined) | inactive: 0.738%
CCOP(=O)(Nc1ccccc1)OCC | inactive: 1.83% and inactive: -0.232%
Cc1cc(SC(NC(=O)c2ccc(F)cc2)C(Cl)(Cl)Cl)ncn1 (centres undefined) | inactive: 6.84%
COc1ccc(OP(C)(=O)Nc2ccccc2Br)cc1 (centres undefined) | inactive: 1.79%
O=C(O)c1ccccc1[As](=O)(O)O | inactive: -26.4%
CC(=O)Nc1ccc([As](=O)(O)O)cc1 | inactive: 1.46%
Cc1cc(C)cc(OP(C)(=O)Nc2cccc(C(F)(F)F)c2)c1 (centres undefined) | inactive: -0.962%
O=P(Nc1nc2ccc(Cl)cc2s1)(c1ccccc1)c1ccccc1 | inactive: 0.718%

SMILES | FP activity change
COc1ccccc1OP(C)(=O)Nc1ccc(C)cc1C (centres undefined) | inactive: 3.66%
CP(=O)(Nc1ccccn1)Oc1ccccc1 (centres undefined) | inactive: -0.73%
CCc1ccc(OP(C)(=O)O)cc1 | inactive: -3.14%
CC(C)CC(=O)NC(Sc1ccc(Cl)cc1)C(Cl)(Cl)Cl (centres undefined) | inactive: -4.83%
O=[N+]([O-])c1cc([N+](=O)[O-])c(Nc2ccccn2)c([N+](=O)[O-])c1 | inactive: -2.16%
Cc1c(NP(C)(=O)Oc2ccc(C(C)C)cc2)c(=O)n(-c2ccccc2)n1C (centres undefined) | inactive: 0.933%
Nc1cc(N)c2nonc2c1[N+](=O)[O-] | inactive: 2.77%
Cc1c2non([O-])c-2c(C)[n+](=O)[n+]1[O-] | inactive: -0.296%
O=C(NC(Sc1ccncn1)C(Cl)(Cl)Cl)c1ccccc1 (centres undefined) | inactive: 6.05%
Oc1ccccc1CNc1ccccn1 | inactive: 0.556%
Cc1ccc(OP(=O)(Nc2nccs2)Oc2ccc(C)cc2)cc1 | inactive: -1.07%
COc1ccc(OP(C)(=O)Nc2ccccn2)cc1 (centres undefined) | inactive: 0.436%
COc1ccccc1OP(=O)(Nc1ccc(C)cn1)Oc1ccccc1OC | inactive: -0.666%
Clc1ccc(Cl)c(NC2=NCC(CBr)S2)c1 (centres undefined) | inactive: 0.93%
CN(C)CCOC(=O)C(O)(c1ccccc1)C1CCCC1 (centres undefined) | inactive: 1.7%
CN1CCCC(OC(=O)C(c2ccccc2)c2ccccc2)C1 (centres undefined) | inactive: 2.71%
NC(=O)c1cc([N+](=O)[O-])cc([N+](=O)[O-])c1N | inactive: 1.54%
Cc1ccc(N/C(=N/P(=O)(N2CCOCC2)N2CCOCC2)N2CCOCC2)cc1 | inactive: -3.17%
COc1ccccc1OP(C)(=O)Nc1ccc(Br)cc1 (centres undefined) | inactive: 2.62%
CN(C)C(=O)OCCc1n(C)cc[n+]1C | inactive: 1.16%
CN(C)C(=O)c1c([N+](=O)[O-])cc([N+](=O)[O-])cc1[N+](=O)[O-] | inactive: 3.55%
CC(C)=N/N=C(\N)N[N+](=O)[O-] | inactive: 7.54%
CC(=O)C1=CCCC2CCC1N2 (centres undefined) | inactive: -1.74%
C[N+]1=C2C=CC=CC=C2SC12C([N+](=O)[O-])=CC([N+](=O)[O-])=C[C-]2[N+](=O)[O-] (centres undefined) | inactive: 0.25%
